Test results reported in patent publication US4238491A (priority 1977, dated 1980).
Where two headings read alike, the source gives them in different places.

Assays:
rats [1] = tested on: rats; design: species or system rat (SD (SPF)); details: rat, in vivo, po
Protocol: All the rats were observed daily and general symptoms noted. Weight was measured daily, average food-intake once every three days, and average water-intake once every two days.

rats [2] = tested on: rats
Excerpt: Rats were sacrificed under anesthesia with ether. After observation of gross appearance of all the organs, extraction and weighing were made on spleen, lung, liver, adrenal, heart, thymus, kidney, testicles, hypophysis and thyroid. In addition to the above organs, femoral bone marrow, lymph node, stomach, intestine, pancreas, urinary bladder, prostate and central nervous system were removed and fixed in 10% formaline solution.

mouse = details: oral
rats [3] = tested on: rats; remark: listed apart in the source
rats [4] = details: 30 days
in vivo [5] = details: mouse
in vivo [6] = details: rat, po

COC(=O)[C@H]1[C@H]2C[C@@H]3c4[nH]c5cc(OC)ccc5c4CCN3C[C@H]2C[C@@H](O)[C@@H]1OC [MR, methylreserpate]
lethal dose (rats [1]): 200 mg/kg
Absolute weight Adrenal (rats [2]; 25.0 mg/kg): 27.86 ± 1.69 mg
Absolute weight Heart (rats [2]; 25.0 mg/kg): 1.26 ± 0.03 g
Absolute weight Testis (rats [2]; 25.0 mg/kg): 1.71 ± 0.10 g
Absolute weight Adrenal (rats [2]; 50.0 mg/kg): 33.17 ± 2.22 mg
Absolute weight Heart (rats [2]; 50.0 mg/kg): 1.34 ± 0.07 g
Absolute weight Adrenal (rats [2]; 100.0 mg/kg, P<0.01): 34.92 ± 1.38 mg
LD50 as multiple of clinical dosage of RCN (mouse): about 10,000 times
R.B.C. (rats [3]; 25.0 mg/kg, day 10): 774±16.4 x10^4 /mm^3
R.B.C. (rats [3]; 25.0 mg/kg, day 20): 872±22.0 x10^4 /mm^3
R.B.C. (rats [3]; 25.0 mg/kg, day 30): 913±8.7 x10^4 /mm^3
R.B.C. (rats [3]; 50.0 mg/kg, day 10): 771±10.8 x10^4 /mm^3
R.B.C. (rats [3]; 50.0 mg/kg, day 20): 864±19.8 x10^4 /mm^3
R.B.C. (rats [3]; 100.0 mg/kg, day 10): 805±17.3 x10^4 /mm^3
R.B.C. (rats [3]; 100.0 mg/kg, day 20, significant vs control): 908±17.2 x10^4 /mm^3
R.B.C. (rats [3]; 200.0 mg/kg, day 10, 4 rats, significant vs control): 877±69.2 x10^4 /mm^3
GPT (rats [4]; 25.0 mg/kg): 36.6±1.55 K.U.
GPT (rats [4]; 50.0 mg/kg): 38.8±2.21 K.U.
GPT (rats [4]; 100.0 mg/kg): 32.7±1.67 K.U.
LD50 (in vivo [5]; iv): 48 mg/kg
LD50 (in vivo [5]; po): 210 mg/kg
LD50 (in vivo [6]): 479 mg/kg
